Data: patent publication US5232849A, “Bacteriocin from lactococcus lactis subspecies lactis” (Quest International Flavors & Food Ingredients Company …, priority 1992, dated 1993)

Key:
alpha-chymotrypsin = target: T1, alpha-chymotrypsin (Bos taurus, UniProt P00766); assay: Chymotrypsin susceptibility of bacteriocin; type: physicochemical; conditions: for Titer after chymotrypsin treatment: 2 hour at 40°
T1 construct: purchased Sigma (St. Louis, Mo.)
Experimental: (§1) Enzymatic Reactions. Trypsin and chymotrypsin susceptibility of crude and purified bacteriocin was explored. Enzymes were obtained from Sigma (St. Louis, Mo.) and were stored lyophilized at -20° C. until use. Enzymatic reactions were done in a 0.1M ammonium bicarbonate buffer, pH 7.8, containing 0.1 mM calcium chloride (Deutcher, M. P., Meth. Enzymol. 182:611-612 (1990)). Susceptibility was defined as inability of the bacteriocin to inhibit the growth of a lawn of indicator bacteria when applied to the surface of an agar plate containing the bacteria at a rate of 16 units activity in a volume of 5 μl.
(§2) Titer <200 is deemed sensitive to protease action; titer >200 is resistant.
Chymotrypsin digestion was done by 2 hour incubation at 40° with 3200-6400 Au/ml bacteriocin concentration.

trypsin = assay: Trypsin susceptibility of bacteriocin; type: physicochemical; conditions: for Titer after trypsin treatment: 20 hours at 40 °C
Experimental: as §1, §2
Trypsin digestion was done by 20 hours incubation at 40° C. with 3200-6400 Aμ/ml bacteriocin concentration.

## nisin [Nisin Pure]
alpha-chymotrypsin; chymotrypsin 1 μg/ml
  sensitive (S) / resistant (R) to chymotrypsin: R (titer >200 is resistant)
  Titer after chymotrypsin treatment: > 200
alpha-chymotrypsin; chymotrypsin 10 μg/ml
  Titer after chymotrypsin treatment: > 200
alpha-chymotrypsin; chymotrypsin 100 μg/ml
  Titer after chymotrypsin treatment: > 200
alpha-chymotrypsin; chymotrypsin 1 mg/ml
  sensitive (S) / resistant (R) to chymotrypsin: R (titer >200 is resistant)
alpha-chymotrypsin; chymotrypsin 1 mg/ml, 3200-6400 AU/ml bacteriocin
  Titer after chymotrypsin treatment: > 200
trypsin; trypsin 1 ng/ml
  sensitive (S) / resistant (R) to trypsin: R (titer >200 is resistant)
  Titer after trypsin treatment: < 200
trypsin; trypsin 10 ng/ml
  sensitive (S) / resistant (R) to trypsin: S (Titer <200 is deemed sensitive to protease action)
  Titer after trypsin treatment: < 200
trypsin; trypsin 100 ng/ml
  Titer after trypsin treatment: < 200
trypsin; trypsin 1 μg/ml
  Titer after trypsin treatment: < 200
trypsin; trypsin 10 μg/ml
  Titer after trypsin treatment: < 200
trypsin; trypsin 100 μg/ml
  Titer after trypsin treatment: < 200
trypsin; trypsin 1 mg/ml
  sensitive (S) / resistant (R) to trypsin: S (Titer <200 is deemed sensitive to protease action)
trypsin; trypsin 1 mg/ml, 3200-6400 AU/ml bacteriocin
  Titer after trypsin treatment: < 200
